Assay results from PubChem BioAssay (NCI).
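96-well plates; 48 h exposure; 5 concentrations. Endpoints by linear interpolation between flanking doses. Not reached: highest tested concentration assigned. Here, GI50 denotes the concentration required for 50% inhibition of growth. Definition used: TGI = concentration required for complete inhibition of growth.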

Experiments:
Assay in all cases: NCI tumour cell line growth inhibition, 48 h
[1] = system: NCI-H23 lung
[2] = system: NCI-H322M lung
[3] = system: NCI-H522 lung
[4] = system: NCI/ADR-RES ovarian
[5] = system: OVCAR-3 ovarian
[6] = system: OVCAR-4 ovarian
[7] = system: OVCAR-5 ovarian
[8] = system: OVCAR-8 ovarian
[9] = system: PC-3 prostate
[10] = system: RPMI-8226 leukemia
[11] = system: RXF 393 renal
[12] = system: SF-268 CNS
[13] = system: SF-295 CNS
[14] = system: SF-539 CNS
[15] = system: SK-MEL-2 melanoma
[16] = system: SK-MEL-28 melanoma
[17] = system: SK-MEL-5 melanoma
[18] = system: SK-OV-3 ovarian
[19] = system: SN12C renal
[20] = system: SNB-19 CNS
[21] = system: SNB-75 CNS
[22] = system: SR leukemia
[23] = system: SW-620 colon
[24] = system: T-47D breast
[25] = system: TK-10 renal
[26] = system: U251 CNS
[27] = system: UACC-257 melanoma
[28] = system: UACC-62 melanoma
[29] = system: UO-31 renal

FC(F)(F)c1cccc(NC2=NCC(CI)S2)c1 (stereo not drawn)
GI50 [1]: > 100 µM
TGI [1]: > 100 µM
GI50 [2]: > 100 µM
TGI [2]: > 100 µM
GI50 [3]: 40.7 µM
TGI [3]: > 100 µM
GI50 [4]: 79 µM
TGI [4]: > 100 µM
GI50 [5]: 80.6 µM
TGI [5]: > 100 µM
GI50 [6]: 75.4 µM
TGI [6]: > 100 µM
GI50 [7]: > 100 µM
TGI [7]: > 100 µM
GI50 [8]: > 100 µM
TGI [8]: > 100 µM
GI50 [9]: > 100 µM
TGI [9]: > 100 µM
GI50 [10]: 42.8 µM
TGI [10]: > 100 µM
GI50 [11]: 25.1 µM
TGI [11]: > 100 µM
GI50 [12]: > 100 µM
TGI [12]: > 100 µM
GI50 [13]: > 100 µM
TGI [13]: > 100 µM
GI50 [14]: > 100 µM
TGI [14]: > 100 µM
GI50 [15]: > 100 µM
TGI [15]: > 100 µM
GI50 [16]: > 100 µM
TGI [16]: > 100 µM
GI50 [17]: > 100 µM
TGI [17]: > 100 µM
GI50 [18]: > 100 µM
TGI [18]: > 100 µM
GI50 [19]: > 100 µM
TGI [19]: > 100 µM
GI50 [20]: > 100 µM
TGI [20]: > 100 µM
GI50 [21]: > 100 µM
TGI [21]: > 100 µM
GI50 [22]: 21.4 µM
TGI [22]: 59.8 µM
GI50 [23]: 61.4 µM
TGI [23]: > 100 µM
GI50 [24]: 46.7 µM
TGI [24]: > 100 µM
GI50 [25]: > 100 µM
TGI [25]: > 100 µM
GI50 [26]: > 100 µM
TGI [26]: > 100 µM
GI50 [27]: 52.3 µM
TGI [27]: > 100 µM
GI50 [28]: 68.7 µM
TGI [28]: > 100 µM
GI50 [29]: > 100 µM
TGI [29]: > 100 µM
